This data set has as its system OC[C@H]1O[C@@](CO)(O[C@H]2O[C@H](CO)[C@@H](O)[C@H](O)[C@H]2O)[C@@H](O)[C@@H]1O. Briefly: purified protein. The following applies: pH and temperature not given; printed sucrose range 0.2-2.6 mM (inulin 2.9-52.1 mM), perhaps swapped.

For the substance “KcINU1 (exo-inulinase from Kluyveromyces cicerisporus CBS4857) (Kluyveromyces marxianus; F113W)”, the Km (usually the concentration of substrate that gives half-maximal velocity) is 94.0 ± 19.2 mM and the Vmax turned out to be 5770 µmol/min/mg.

For “KcINU1 (exo-inulinase from Kluyveromyces cicerisporus CBS4857) (Kluyveromyces marxianus; M117A)”, the Km is listed as 20.0 ± 3.5 mM and the Vmax was determined as 4972 d336.4.

The values above are taken from PMC7545266.
